The results in this text go back to publication PMC5423295, “Positive Modulatory Interactions of NMDA Receptor GluN1/2B Ligand Binding Domains Attenuate Antagonists Activity” (Frontiers in Pharmacology, 2017).

Amino acid sequences for entries named in this document (tags omitted). A change or cut given only in a name is not applied to a line headed by its entry. Residues count along the entry.
UniProt Q00960, 27-1482: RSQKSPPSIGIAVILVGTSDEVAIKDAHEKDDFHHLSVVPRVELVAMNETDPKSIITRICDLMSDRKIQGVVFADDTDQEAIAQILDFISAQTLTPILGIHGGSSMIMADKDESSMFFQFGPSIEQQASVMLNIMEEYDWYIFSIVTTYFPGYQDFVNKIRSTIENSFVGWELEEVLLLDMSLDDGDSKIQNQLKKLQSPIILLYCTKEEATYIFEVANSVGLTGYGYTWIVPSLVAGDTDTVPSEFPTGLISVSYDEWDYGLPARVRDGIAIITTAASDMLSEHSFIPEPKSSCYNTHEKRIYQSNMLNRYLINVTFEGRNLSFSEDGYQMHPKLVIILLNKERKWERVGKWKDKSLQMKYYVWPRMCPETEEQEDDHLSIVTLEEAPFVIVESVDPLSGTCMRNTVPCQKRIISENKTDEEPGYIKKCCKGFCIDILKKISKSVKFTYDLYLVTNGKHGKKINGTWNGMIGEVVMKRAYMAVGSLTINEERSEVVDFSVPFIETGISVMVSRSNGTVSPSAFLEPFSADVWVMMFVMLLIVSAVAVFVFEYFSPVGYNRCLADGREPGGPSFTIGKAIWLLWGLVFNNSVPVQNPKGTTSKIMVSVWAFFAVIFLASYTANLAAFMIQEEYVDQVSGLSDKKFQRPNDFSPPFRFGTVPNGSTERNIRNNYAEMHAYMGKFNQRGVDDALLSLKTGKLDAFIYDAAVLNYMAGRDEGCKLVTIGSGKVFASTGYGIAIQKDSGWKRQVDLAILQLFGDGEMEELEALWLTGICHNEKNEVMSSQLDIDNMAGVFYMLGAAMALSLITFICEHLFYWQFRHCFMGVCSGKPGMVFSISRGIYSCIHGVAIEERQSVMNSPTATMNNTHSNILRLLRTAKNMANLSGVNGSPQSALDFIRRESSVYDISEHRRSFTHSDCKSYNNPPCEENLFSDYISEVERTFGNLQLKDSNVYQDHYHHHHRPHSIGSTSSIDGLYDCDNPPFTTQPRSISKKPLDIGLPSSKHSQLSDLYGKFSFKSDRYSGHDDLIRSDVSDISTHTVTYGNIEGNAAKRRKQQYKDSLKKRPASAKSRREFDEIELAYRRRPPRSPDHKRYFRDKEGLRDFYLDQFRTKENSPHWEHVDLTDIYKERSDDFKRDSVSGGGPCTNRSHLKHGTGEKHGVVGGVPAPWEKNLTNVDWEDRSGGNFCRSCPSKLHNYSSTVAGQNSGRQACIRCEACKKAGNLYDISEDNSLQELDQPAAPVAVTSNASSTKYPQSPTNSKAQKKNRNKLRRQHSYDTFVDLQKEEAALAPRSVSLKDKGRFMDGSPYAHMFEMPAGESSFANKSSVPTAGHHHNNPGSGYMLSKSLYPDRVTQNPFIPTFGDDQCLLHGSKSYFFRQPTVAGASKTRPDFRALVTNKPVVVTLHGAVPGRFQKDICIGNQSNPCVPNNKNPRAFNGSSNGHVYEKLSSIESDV

Common to all, as to assay: two-electrode voltage clamp, Xenopus oocytes
Common to all, as to assay type: cell-based
Holding throughout (details): read-out: EC50 or IC50
(In two-electrode clamp one electrode senses voltage and the other passes current.)

The target in assay [1] is T1, GluN1/2B NMDA receptor (GluN1a + GluN2B) (Rattus norvegicus, UniProt P35439+Q00960, P35439:N521A).
T1 construct: gene Grin1; cRNAs 1:1-3 in Xenopus oocytes; heterotetramer
The source says: (§1) two-electrode voltage clamp, Xenopus oocytes on GluN1/2B NMDA receptor (GluN1a + GluN2B)

Assay [2] addresses T2, GluN1/2B NMDA receptor (GluN1a + GluN2B) (Rattus norvegicus, UniProt P35439+Q00960).
T2 construct: gene Grin1; cRNAs 1:1-3 in Xenopus oocytes; heterotetramer
Text: as §1

In assay [3] the target is T3, GluN1/2B NMDA receptor (GluN1a + GluN2B) (Rattus norvegicus, UniProt P35439+Q00960, P35439:N521D).
T3 construct: gene Grin1; cRNAs 1:1-3 in Xenopus oocytes; heterotetramer
Text: as §1

For assay [4], the target named is T4, GluN1/2B NMDA receptor (GluN1a + GluN2B) (Rattus norvegicus, UniProt P35439+Q00960, P35439:K531A).
T4 construct: gene Grin1; cRNAs 1:1-3 in Xenopus oocytes; heterotetramer
Text: as §1

For orientation: IC50 means the point on the concentration scale where inhibition reaches its midpoint. Take `CC12CC3CC(C)(C1)CC(N)(C3)C2` [Memantine]: the IC50 in assay [1] is 0.64 ± 0.04 µM; in assay [2], 1.43 ± 0.11 µM; in assay [3], 0.84 ± 0.1 µM; in assay [4], 0.6 ± 0.07 µM.
